# Data as given in PubChem BioAssay AID729 (The Scripps Research Institute Molecular Screening Center, 2007).
# By UniProt entry, the sequences of proteins in these tests, tags left out.
# UniProt O95136, whole entry: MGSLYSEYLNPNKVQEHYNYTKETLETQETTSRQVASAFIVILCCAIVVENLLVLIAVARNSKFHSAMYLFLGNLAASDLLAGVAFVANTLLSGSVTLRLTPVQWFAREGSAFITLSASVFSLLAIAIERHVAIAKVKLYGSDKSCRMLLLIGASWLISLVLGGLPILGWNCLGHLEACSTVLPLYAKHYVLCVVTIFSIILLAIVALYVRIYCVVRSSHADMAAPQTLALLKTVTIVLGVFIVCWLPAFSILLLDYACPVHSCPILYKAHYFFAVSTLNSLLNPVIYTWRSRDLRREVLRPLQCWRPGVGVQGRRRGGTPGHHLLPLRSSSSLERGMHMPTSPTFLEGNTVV
# This is a selection; strong and weak results do not stand in their true shares. The source made the active and inactive calls. Cut-off read from the data, not from the text of the source: active = activation above about 16%; inactive = the rest.
# Target: Sphingosine 1-phosphate receptor 2 (Homo sapiens) (UniProt O95136)
# Assay: activation of human S1P2 receptor – cell-based, primary screen (AID 729);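 note: 0% = vehicle low control and 100% = maximal reference agonist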
# Settings: S1P2-expressing cell line, agonist reporter read-out; at 4.5 µM; hits give high values
row,Compound,activation
1,Cc1nc2ccc3ccccc3c2o1.O=[N+]([O-])c1cc([N+](=O)[O-])c(O)c([N+](=O)[O-])c1,inactive: -6.03%
2,COc1ccccc1OP(C)(=O)Nc1ccc(C)c(C)c1 (stereo not given),inactive: -1.66%
3,Cc1c(NP(C)(=O)Oc2ccc(C(C)C)cc2)c(=O)n(-c2ccccc2)n1C (stereo not given),inactive: -6.8%
4,CCc1ccc(OP(C)(=O)O)cc1,inactive: -3.03%
5,COc1ccccc1OP(C)(=O)Nc1ccc(C)cc1C (stereo not given),inactive: -2.72%
6,CP(=O)(Nc1ccccn1)Oc1ccccc1 (stereo not given),inactive: -5.86%
7,CN(C)CCOC(=O)C(O)(c1ccccc1)C1CCCC1 (stereo not given),inactive: -4.22%
8,COc1ccc(OP(C)(=O)Nc2ccccn2)cc1 (stereo not given),inactive: -2.77%
9,CP(=O)(Nc1ccc(Cl)cc1)Oc1ccc(F)cc1 (stereo not given),inactive: -8.29%
10,CC(C)(C)c1ccc(OP(C)(=O)O)cc1,inactive: -10.1%
11,CCN(CC)CC(O)COC(=O)C(O)(c1ccccc1)C1CCCCC1 (stereo not given),inactive: 1.42%
12,CP(=O)(Oc1ccccc1)N1CCOC1=O (stereo not given),inactive: -2.82%
13,COc1ccccc1OP(C)(=O)Nc1c(C)n(C)n(-c2ccccc2)c1=O (stereo not given),inactive: -5.29%
14,CP(=O)(OC12CC3CC(CC(C3)C1)C2)OC12CC3CC(CC(C3)C1)C2,inactive: -1.16%
15,COc1ccc(OP(C)(=O)Nc2cccc(Br)c2)cc1 (stereo not given),inactive: -2.45%
16,CN(C)CCOC(=O)C(O)(c1ccccc1)C1CCCCC1 (stereo not given),inactive: -7.55%
17,CP(=O)(Nc1ccc2c(c1)OCCO2)Oc1ccccc1 (stereo not given),inactive: -10.2%
18,CCOP(C)(=S)SCC(=O)NC(C)(CC)C(=O)O (stereo not given),inactive: -6.08%
19,CP(=O)(Nc1ccccc1F)Oc1ccccc1 (stereo not given),inactive: -10.4%
20,CCN(CC)CCCOC(=O)C(O)(c1ccccc1)C1CCCCC1 (stereo not given),inactive: -5.03%
21,CP(=O)(Nc1ccccc1)Oc1ccc(F)cc1 (stereo not given),inactive: -4.03%
22,Cc1cc(C)cc(OP(C)(=O)Nc2ccccn2)c1 (stereo not given),inactive: -4.85%
23,Cc1ccc(C)c(NP(C)(=O)Oc2ccccc2)c1 (stereo not given),inactive: -5.32%
24,Cc1cc(C)cc(OP(C)(=O)Nc2ccc(C)cc2C)c1 (stereo not given),inactive: -4.01%
25,Cc1nc2ccc3ccccc3c2s1.O=[N+]([O-])c1cc([N+](=O)[O-])c(O)c([N+](=O)[O-])c1,inactive: -5.53%
26,COc1ccccc1OP(C)(=O)Nc1c(C)cccc1C (stereo not given),inactive: -12.4%
27,CP(=S)(Nn1cnnc1)Oc1ccccc1 (stereo not given),inactive: -3.54%
28,CP(=O)(Nc1ccccn1)Oc1ccc(Cl)cc1 (stereo not given),inactive: 2.37%
29,CP(=O)(NC(=O)Nc1ccccc1)Oc1ccccc1 (stereo not given),inactive: -1.55%
30,COc1ccc(OP(C)(=O)Nc2cccc(F)c2)cc1 (stereo not given),inactive: -6.46%
